Tests used:
[1] = target: Bifunctional epoxide hydrolase 2 (Mus musculus, UniProt P34914); assay: Inhibition of mouse soluble epoxide hydrolase by spectrometric based assay
[2] = target: Bifunctional epoxide hydrolase 2 (Homo sapiens, UniProt P34913)

Protein sequences, listed by entry. Tags and fused reporters are not part of them. Lines headed by an entry give the natural chain unless they say otherwise; changes in a name come on top.
UniProt P34914: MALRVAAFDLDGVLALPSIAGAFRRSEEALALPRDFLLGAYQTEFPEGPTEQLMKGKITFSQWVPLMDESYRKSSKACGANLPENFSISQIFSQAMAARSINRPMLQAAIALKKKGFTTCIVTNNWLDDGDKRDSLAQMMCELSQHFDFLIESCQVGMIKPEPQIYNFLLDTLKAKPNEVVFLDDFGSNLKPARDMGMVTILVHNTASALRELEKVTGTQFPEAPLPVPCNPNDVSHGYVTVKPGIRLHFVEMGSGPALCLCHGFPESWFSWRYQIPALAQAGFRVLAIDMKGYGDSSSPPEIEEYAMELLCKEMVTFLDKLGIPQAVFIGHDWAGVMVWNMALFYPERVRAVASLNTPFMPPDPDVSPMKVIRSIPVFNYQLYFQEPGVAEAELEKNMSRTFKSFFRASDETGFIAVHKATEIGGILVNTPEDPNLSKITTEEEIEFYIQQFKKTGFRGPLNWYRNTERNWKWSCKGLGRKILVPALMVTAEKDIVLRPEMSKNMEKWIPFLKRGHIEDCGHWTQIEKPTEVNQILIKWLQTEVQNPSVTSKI
UniProt P34913, whole entry: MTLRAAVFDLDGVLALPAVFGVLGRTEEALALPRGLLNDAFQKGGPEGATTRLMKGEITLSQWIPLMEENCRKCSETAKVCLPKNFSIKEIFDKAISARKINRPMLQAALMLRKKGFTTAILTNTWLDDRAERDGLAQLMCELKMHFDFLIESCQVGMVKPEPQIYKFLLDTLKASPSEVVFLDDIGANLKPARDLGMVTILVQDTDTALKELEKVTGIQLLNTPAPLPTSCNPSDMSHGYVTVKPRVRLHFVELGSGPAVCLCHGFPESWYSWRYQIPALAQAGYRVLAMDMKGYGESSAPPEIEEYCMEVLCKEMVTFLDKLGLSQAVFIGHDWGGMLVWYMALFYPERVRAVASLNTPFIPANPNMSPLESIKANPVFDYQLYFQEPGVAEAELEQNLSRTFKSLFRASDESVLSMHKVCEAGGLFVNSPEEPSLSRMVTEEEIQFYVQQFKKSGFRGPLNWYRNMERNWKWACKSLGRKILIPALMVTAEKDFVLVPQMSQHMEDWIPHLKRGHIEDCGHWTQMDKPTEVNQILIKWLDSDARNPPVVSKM

Row | SMILES | IC50 [1] [nM] | IC50 [2] [nM]
1 | O=C(NCCCCCCCCCCCC(=O)OCc1ccccc1Cl)NC12CC3CC(CC(C3)C1)C2 | 50 | 1.7
2 | CCCCOC(=O)CCCCCCCCCCCNC(=O)NC12CC3CC(CC(C3)C1)C2 |  | 0.8
3 | O=C(NCCCCCCCCCCCC(=O)OCc1cccc2ccccc12)NC12CC3CC(CC(C3)C1)C2 |  | 2.4
4 | CC(C)(C)OC(=O)CCCCCCCCCCCNC(=O)NC12CC3CC(CC(C3)C1)C2 |  | 1.3
